Literature values as cited in patent US8426385B2 (Hainan Hdeton Science and Technology Co. Ltd., priority 2006, dated 2013).

Conditions: phase solubility studies; cited from earlier work

In the case of hydroxypropyl-γ-cyclodextrin, the “dual-inclusion constant with paclitaxel” value is given as 1886 M⁻¹.
